Data on 31 compounds can be found in patent US10086000B2, “Tricyclic compounds as inhibitors of mutant IDH enzymes” (Merck Sharp & Dohme Corp., priority 2014, dated 2018).

Amino acid sequences for entries named in this document (tags omitted).
UniProt O75874, whole entry R132H: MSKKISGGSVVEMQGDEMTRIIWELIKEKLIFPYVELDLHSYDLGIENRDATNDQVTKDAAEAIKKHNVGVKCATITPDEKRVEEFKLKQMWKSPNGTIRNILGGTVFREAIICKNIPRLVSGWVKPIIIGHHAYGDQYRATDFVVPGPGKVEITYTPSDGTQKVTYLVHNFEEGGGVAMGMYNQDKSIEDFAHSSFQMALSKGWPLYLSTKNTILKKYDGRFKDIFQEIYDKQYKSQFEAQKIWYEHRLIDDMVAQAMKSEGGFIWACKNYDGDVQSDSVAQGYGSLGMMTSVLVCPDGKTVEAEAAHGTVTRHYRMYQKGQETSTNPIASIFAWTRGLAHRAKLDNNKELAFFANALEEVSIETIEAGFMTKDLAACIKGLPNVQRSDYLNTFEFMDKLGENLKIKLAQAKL

As usually defined, the IC50 is the concentration needed to halve the response being measured. High values mean a need for much substance, low ones inhibition by little substance.

Molecules are shown by their SMILES.

For the assay, the target named is R132H mutant IDH1 enzyme (Homo sapiens (Human), UniProt O75874, R132H). As to the kind of experiment: R132H IDH1 Enzymatic Assay. Type of assay: biochemical. To be noted: R132H mutant IDH1 enzyme 1.5 nM final; luminescence (Kinase-GLO) readout. (In general: Kinase-Glo reads ATP consumption through a luciferase reaction.)

Consider `O=C([C@@H]1CC[C@H]2OCCC[C@@H]2C1)N1Cc2cccnc2Nc2ccc(N3CCOCC3)cc21` [Example 48, 8-morpholin-4-yl-6-[(4aR,6R,8aR)-octahydro-2H-chromen-6-ylcarbonyl]-6,11-dihydro-5H-pyrido[2,3-b][1,5]benzodiazepine], for which half-maximal inhibition (IC50) required 1870 nM.
In the case of `O=C([C@@H]1CC[C@@H]2OCCC[C@H]2C1)N1Cc2cccnc2Nc2ccc(N3CCOCC3)cc21` [Example 49, 8-morpholin-4-yl-6-[(4aS,6R,8aS)-octahydro-2H-chromen-6-ylcarbonyl]-6,11-dihydro-5H-pyrido[2,3-b][1,5]benzodiazepine], the IC50 was determined as 2480 nM.
As to `O=C([C@H]1CC[C@H]2OCCC[C@@H]2C1)N1Cc2cccnc2Nc2ccc(N3CCOCC3)cc21` [Example 50, 8-morpholin-4-yl-6-[(4aR,6S,8aR)-octahydro-2H-chromen-6-ylcarbonyl]-6,11-dihydro-5H-pyrido[2,3-b][1,5]benzodiazepine], inhibition was half-maximal at 2480 nM (IC50).
With `O=C([C@@H]1CC[C@@H]2OCCC[C@@H]2C1)N1Cc2cccnc2Nc2ccc(N3CCOCC3)cc21` [Example 51, 8-morpholin-4-yl-6-[(4aR,6R,8aS)-octahydro-2H-chromen-6-ylcarbonyl]-6,11-dihydro-5H-pyrido[2,3-b][1,5]benzodiazepine] the figure was 667 nM; with `O=C([C@H]1CC[C@H]2OCCC[C@H]2C1)N1Cc2cccnc2Nc2ccc(N3CCOCC3)cc21` [Example 52, 8-morpholin-4-yl-6-[(4aS,6S,8aR)-octahydro-2H-chromen-6-ylcarbonyl]-6,11-dihydro-5H-pyrido[2,3-b][1,5]benzodiazepine], 257 nM; with `C[C@@H]1C[C@@H]2C[C@H](C(=O)N3Cc4cccnc4Nc4ccc(N5CCOCC5)cc43)CC[C@@H]2O1` [Example 55, 6-{[(2R,3aS,5R,7aS)-2-methyloctahydro-1-benzofuran-5-yl]carbonyl}-8-morpholin-4-yl-6,11-dihydro-5H-pyrido[2,3-b][1,5]benzodiazepine], 1070 nM.
Consider `C[C@H]1C[C@H]2C[C@@H](C(=O)N3Cc4cccnc4Nc4ccc(N5CCOCC5)cc43)CC[C@H]2O1` [Example 56, 6-{[(2S,3aR,5S,7aR)-2-methyloctahydro-1-benzofuran-5-yl]carbonyl}-8-morpholin-4-yl-6,11-dihydro-5H-pyrido[2,3-b][1,5]benzodiazepine], for which the IC50 turned out to be 351 nM.
With `CO[C@H]1C2CC3CC1C[C@](C(=O)N1Cc4cccnc4Nc4ccc(N5CCOCC5)cc41)(C3)C2` [Example 57, 6-{[(1r,4s)-4-methoxytricyclo[3.3.1.1~3,7~]dec-1-yl]carbonyl}-8-morpholin-4-yl-6,11-dihydro-5H-pyrido[2,3-b][1,5]benzodiazepine] the figure was 424 nM.
The compound `CO[C@H]1C2CC3CC1C[C@@](C(=O)N1Cc4cccnc4Nc4ccc(N5CCOCC5)cc41)(C3)C2` [Example 58, 6-{[(1s,4r)-4-methoxytricyclo[3.3.1.1~3,7~]dec-1-yl]carbonyl}-8-morpholin-4-yl-6,11-dihydro-5H-pyrido[2,3-b][1,5]benzodiazepine] returned an IC50 of 9930 nM.
With `COC1CC2CCC1CC2C(=O)N1Cc2cccnc2Nc2ccc(N3CCOCC3)cc21` (stereo not shown) [Example 59, 6-[(5-methoxybicyclo[2.2.2]oct-2-yl)carbonyl]-8-morpholin-4-yl-6,11-dihydro-5H-pyrido[2,3-b][1,5]benzodiazepine] the figure was 14200 nM.
Under `COC1CC2CCC1CC2C(=O)N1Cc2cccnc2Nc2ccc(N3CCOCC3)cc21` (stereo not shown) [Example 60, 6-[(5-methoxybicyclo[2.2.2]oct-2-yl)carbonyl]-8-morpholin-4-yl-6,11-dihydro-5H-pyrido[2,3-b][1,5]benzodiazepine] stands 1460 nM; under `COC1CC2CCC1CC2C(=O)N1Cc2cccnc2Nc2ccc(N3CCOCC3)cc21` (stereo not shown) [Example 61, 6-[(5-methoxybicyclo[2.2.2]oct-2-yl)carbonyl]-8-morpholin-4-yl-6,11-dihydro-5H-pyrido[2,3-b][1,5]benzodiazepine], 4060 nM.
`O=C(C1CCc2ccccc2CC1)N1Cc2cccnc2Nc2ccccc21` [Example 62, 6-(6,7,8,9-tetrahydro-5H-benzo[7]annulen-7-ylcarbonyl)-6,11-dihydro-5H-pyrido[2,3-b][1,5]benzodiazepine] returned an IC50 of 9 nM.
`O=C(C1CCc2ccccc2CC1)N1Cc2cccnc2Nc2ccc(Br)cc21` [Example 64, 8-bromo-6-(6,7,8,9-tetrahydro-5H-benzo[7]annulen-7-ylcarbonyl)-6,11-dihydro-5H-pyrido[2,3-b][1,5]benzodiazepine] displayed an IC50 of 4 nM.
`O=C(c1ccc2c(c1)N(C(=O)C1CCc3ccccc3CC1)Cc1cccnc1N2)N1Cc2ccccc2C1` [Example 65, 8-(1,3-dihydro-2H-isoindol-2-ylcarbonyl)-6-(6,7,8,9-tetrahydro-5H-benzo[7]annulen-7-ylcarbonyl)-6,11-dihydro-5H-pyrido[2,3-b][1,5]benzodiazepine] returned an IC50 of 3 nM.
In turn, `O=C(C1CCc2ccccc2CC1)N1Cc2cccnc2Nc2cccc(O)c21` [Example 66, 6-(6,7,8,9-tetrahydro-5H-benzo[7]annulen-7-ylcarbonyl)-6,11-dihydro-5H-pyrido[2,3-b][1,5]benzodiazepin-7-ol] yielded an IC50 of 12 nM.
`O=C(C1CCc2ccccc2CC1)N1Cc2cccnc2Nc2ccc(N3CCOCC3)cc21` [Example 68, 8-morpholin-4-yl-6-(6,7,8,9-tetrahydro-5H-benzo[7]annulen-7-ylcarbonyl)-6,11-dihydro-5H-pyrido[2,3-b][1,5]benzodiazepine]: the IC50 is 5 nM.
With `O=C(C1CCCCC12CC2)N1Cc2cccnc2Nc2ccc(N3CCOCC3)cc21` (stereo not shown) [Example 69, 8-morpholin-4-yl-6-(spiro[2.5]oct-4-ylcarbonyl)-6,11-dihydro-5H-pyrido[2,3-b][1,5]benzodiazepine] the figure was 1900 nM; with `CC1CC(C(=O)N2Cc3cccnc3Nc3ccc(N4CCOCC4)cc32)C2CCCC12` (stereo not shown) [Example 70, 6-[(3-methyloctahydropentalen-1-yl)carbonyl]-8-morpholin-4-yl-6,11-dihydro-5H-pyrido[2,3-b][1,5]benzodiazepine], 77 nM.
Compound `O=C([C@@H]1CC[C@H]2CCC[C@H]21)N1Cc2cccnc2Nc2ccc(N3CCOCC3)cc21` [Example 73, 8-morpholin-4-yl-6-[(1R,3aR,6aR)-octahydropentalen-1-ylcarbonyl]-6,11-dihydro-5H-pyrido[2,3-b][1,5]benzodiazepine] displayed an IC50 of 700 nM.
Turning to `O=C([C@H]1CC[C@@H]2CCC[C@@H]21)N1Cc2cccnc2Nc2ccc(N3CCOCC3)cc21` [Example 74, 8-morpholin-4-yl-6-[(1S,3aS,6aS)-octahydropentalen-1-ylcarbonyl]-6,11-dihydro-5H-pyrido[2,3-b][1,5]benzodiazepine], half-maximal inhibition (IC50) was put at 79 nM.
Regarding `O=C([C@H]1COc2ccccc2O1)N1Cc2cccnc2Nc2ccc(N3CCC(F)CC3)cc21` [Example 75, 6-[(2R)-2,3-dihydro-1,4-benzodioxin-2-ylcarbonyl]-8-(4-fluoropiperidin-1-yl)-6,11-dihydro-5H-pyrido[2,3-b][1,5]benzodiazepine], the IC50 is 69 nM.
As to `O=C([C@H]1COc2ccccc2O1)N1Cc2cccnc2Nc2ccc(N3C[C@H]4CC[C@@H](C3)O4)cc21` [Example 76, 6-[(2R)-2,3-dihydro-1,4-benzodioxin-2-ylcarbonyl]-8-[(1R,5S)-8-oxa-3-azabicyclo[3.2.1]oct-3-yl]-6,11-dihydro-5H-pyrido[2,3-b][1,5]benzodiazepine], the half-maximal inhibitory concentration (IC50) amounted to 17 nM.
In turn, `O=C([C@H]1COc2ccccc2O1)N1Cc2cccnc2Nc2ccc(N3C[C@@H]4C[C@H]3CO4)cc21` [Example 79, 6-[(2R)-2,3-dihydro-1,4-benzodioxin-2-ylcarbonyl]-8-[(1S,4S)-2-oxa-5-azabicyclo[2.2.1]hept-5-yl]-6,11-dihydro-5H-pyrido[2,3-b][1,5]benzodiazepine] yielded an IC50 of 64 nM.
With `CC(C)(C)c1ccc2c(c1)OCC(C(=O)N1Cc3cccnc3Nc3ccc(N4CCOCC4)cc31)O2` (stereo not shown) [Example 80, 6-[(6-tert-butyl-2,3-dihydro-1,4-benzodioxin-2-yl)carbonyl]-8-morpholin-4-yl-6,11-dihydro-5H-pyrido[2,3-b][1,5]benzodiazepine] the figure was 176 nM.
Consider `O=C([C@H]1COc2cc(Cl)ccc2O1)N1Cc2cccnc2Nc2ccc(N3CCOCC3)cc21` [Example 81, 6-{[(2R)-6-chloro-2,3-dihydro-1,4-benzodioxin-2-yl]carbonyl}-8-morpholin-4-yl-6,11-dihydro-5H-pyrido[2,3-b][1,5]benzodiazepine], for which the midpoint of inhibition, the IC50, lay at 18 nM.
Turning to `O=C(C1COC2CCCCC2O1)N1Cc2cccnc2Nc2ccc(N3CC4CCC(C3)O4)cc21` (stereo not shown) [Example 82, 6-(octahydro-1,4-benzodioxin-2-ylcarbonyl)-8-(8-oxa-3-azabicyclo[3.2.1]oct-3-yl)-6,11-dihydro-5H-pyrido[2,3-b][1,5]benzodiazepine], the IC50 came out at 20 nM.
As to `COC1CC2(C1)CC(C(=O)N1Cc3cccnc3Nc3ccc(N4CCOCC4)cc31)C2` (stereo not shown) [Example 86, 6-[(6-Methoxyspiro[3.3]hept-2-yl)carbonyl]-8-morpholin-4-yl-6,11-dihydro-5Hpyrido[2,3-b][1,5]benzodiazepine], inhibition was half-maximal at 1920 nM (IC50).
Under `CCOC1CC2(C1)CC(C(=O)N1Cc3cccnc3Nc3ccc(N4CCOCC4)cc31)C2` (stereo not shown) [Example 87, 6-[(6-ethoxyspiro[3.3]hept-2-yl)carbonyl]-8-morpholin-4-yl-6,11-dihydro-5H-pyrido[2,3-b][1,5]benzodiazepine] stands 1500 nM; under `CC(C)OC1CC2(C1)CC(C(=O)N1Cc3cccnc3Nc3ccc(N4CCOCC4)cc31)C2` (stereo not shown) [Example 88, 6-{[6-(1-methylethoxy)spiro[3.3]hept-2-yl]carbonyl}-8-morpholin-4-yl-6,11-dihydro-5H-pyrido[2,3-b][1,5]benzodiazepine], 1040 nM; under `CC1CN(C(=O)C23CCC(C(=O)N4Cc5cccnc5Nc5ccccc54)(CC2)CC3)C1` [Example 89, 6-({4-[(3-Methylazetidin-1-yl)carbonyl]bicyclo[2.2.2]oct-1-yl}carbonyl)-6,11-dihydro-5H-pyrido[2,3-b][1,5]benzodiazepine], 4200 nM.
